Values of other authors, collected in PMC12795676, “Integrin α5β1 mediates the inhibitory effects of vasoinhibin on angiogenesis and vascular permeability [drawing 1]” (The Journal of Biological Chemistry, 2025).

System: endothelial cells
Conditions: cited from earlier work

Substance: volociximab
- Disruption of endothelial adhesion: disrupt endothelial adhesion
- Induction of apoptosis (anoikis): induce apoptosis through anoikis
